Laboratory results reported in patent US4803224A, “Antiviral antibiotic complex” (Bristol-Myers Company, priority 1986, dated 1989).

What was measured:
[1] = tested on: Vero cell; assay: Cytotoxicity against host cells (dye-uptake assay); type: cell-based
Experimental: (§1) Antiviral activity of BU-2231 V was assessed using the herpes simplex virus type I (HSV-1)-Vero cell system by the plaque reduction assay and the dye-uptake assay (C. McLaren et al., Antiviral Research, 3, 223 (1983)). ε-poly-L-lysine (S. Shima and H. Sakai, Agr. Biol. Chem., 41, 1807 (1977)), a structurally related compound produced by Streptomyces No. 346 (kindly provided by Prof. H. Sakai of University of Osaka Prefecture) and two types of α-poly-L-lysine (MW 3,500 and 25,000) were comparatively tested as the reference compound. The results are shown in Table 2 together with their cytotoxicity against the host cells.

[2] = tested on: Vero cell; assay: Cytotoxicity against host cells (plaque reduction assay); type: cell-based
Experimental: as §1

Substance | Dye-uptake assay, Cytotoxicity vs Vero cell (TCID50) [1] [µg/mL] | Plaque reduction assay, Cytotoxicity vs Vero cell (TCID50) [2] [µg/mL]
α-poly-L-lysine [α-Poly-L-lysine (MW: 25,000)] | 20 | 25
α-poly-L-lysine [α-Poly-L-lysine (MW: 3,500)] | > 100 | > 400
